Experimental findings from BindingDB's records for US9315514 are described below.

Settings in all cases: pH 7.4
Experiment [1] concerns the target T1, Kappa-type opioid receptor (Homo sapiens, UniProt P41145).
The target in experiment [2] is Mu-type opioid receptor (Homo sapiens, UniProt P35372).
For experiment [3], the target named is T1, Kappa-type opioid receptor. The source holds these as a separate data set.

In experiment [1], `COc1ccc2c3c1O[C@H]1[C@@]45C=C[C@@]6(C[C@@H]4[C@@](C)(C(C)(C)C)OCO5)[C@@H](C2)N(CC2CC2)CC[C@]316` came in with a concentration giving a half-maximal response (EC50) of 593 nM.

As to `COc1ccc2c3c1O[C@H]1[C@@]45CC[C@@]6(C[C@@H]4[C@@](C)(C(C)(C)C)OCO5)[C@@H](C2)N(CC2CC2)CC[C@]316`, the response in experiment [2] was half-maximal at 85.4 nM (EC50). The molecule also came in with an inhibitory constant (Ki) in experiment [3] of 7.22 nM.
